Results: patent US20260276643A1, “METHODS FOR PREDICTING AND IMPROVING THERAPEUTIC EFFICACY OF CANCER TREATMENTS AND METHODS FOR CANCER PROGNOSIS” (Università degli studi di Verona, priority 2023, published 2026)

System: CLDN18 expression in DANG cells
Test: CLDN18 exogenous regulation in vitro: CLDN18 staining of treated DANG cells
Assay type: cell-based, human
Conditions: extended experiment, FIG. 11

## N[C@@H](Cc1ccc([N+]([O-])(CCCl)CCCl)cc1)C(=O)O
  CLDN18 expression (percentage of CLDN18+ cells): with the exemption of CoCL2, PX-478 all induced CLDN18 expression in DANG cells

## CoCl2
  CLDN18 expression (percentage of CLDN18+ cells): with the exemption of CoCL2, PX-478 all induced CLDN18 expression in DANG cells
